According to ChEMBL document CHEMBL1132513, “Manipulation of the C(22)-C(27) region of rapamycin: stability issues and biological implications” (Bioorg Med Chem Lett, 1999):

Assay: The activity in the LAF assay is best expressed as a ratio of the rapamycin IC50 (1-9 nM) /analogue IC50 (R/A)
Type: functional

## CO[C@H]1C[C@@H]2CC[C@@H](C)[C@@](O)(O2)C(=O)C(=O)N2CCCC[C@H]2C(=O)O[C@H]([C@H](C)C[C@@H]2CC[C@@H](O)[C@H](OC)C2)CC(=O)[C@H](C)/C=C(\C)[C@@H](O)[C@@H](OC)C(=O)[C@H](C)C[C@H](C)/C=C/C=C/C=C/1C [SIROLIMUS]
  Ratio: 3
